Data from US20230365671A1 (ONCOONE RESEARCH AND DEVELOPMENT, published 2023).

How the values were obtained:
[1] = molecular target: T1, Mouse oxMIF (mouse recombinant MIF treated with 0.2% Proclin300, oxMIF surrogate) (mouse, UniProt P34884 2-115, treated with 0.2% Proclin300 (active component 5-chloro-2-methyl-4-isothiazolin-3-one) for 3 h to transform MIF into an oxMIF surrogate); test: SPR (Biacore 3000), antibody amine-coupled to CM5 chip, Proclin300-treated MIF 50-150 nM as analyte, 1:1 Langmuir with mass transfer; mean of flow cells 2-4, SD +/-3.01 nM
T1 construct: SPR analyte; also called Proclin300 treated MIF; soluble mouse oxMIF
Method: (§1) The newly designed antibodies C0108 and C0109, as well as the control anti-oxMIF antibody C0008 were immobilized to Biacore CM5 optical sensor chips (GE Healthcare) using standard amine coupling conditions to a density of about 2500, 1500 or 100 RU on Flow cells FC2, FC3 and FC4, respectively. FC1 was used as reference cell and was only reacted with buffers. Mouse or human recombinant MIF were diluted in HBS-EP buffer (GE Healthcare) to concentrations of 50, 75, 100, or 150 nM in the presence of 0.2% Proclin300 (active component 5-chloro-2-methyl-4-isothiazolin-3-one; Sigma) to transform MIF into an oxMIF surrogate (Thiele M et al., 2015) for 3 h at room temperature. […] The kinetics of the concentration series were analyzed by local simultaneous association/dissociation fitting of each binding curve after subtraction of background from the reference cell (FC1) using the iterative Langmuir 1:1 interaction model with mass transfer compensation provided by the BiaEvaluation 4.1 software (GE Healthcare). Data are represented as mean+/−SD (standard deviation) of the calculated KD values of Flow Cells 2-4.
(§2) Results and conclusion: The binding of the newly designed antibodies with enhanced effector functions towards soluble human and mouse oxMIF determined by SPR are shown in Table 8. […]

[2] = molecular target: T1, Mouse oxMIF (mouse recombinant MIF …); test: SPR (Biacore 3000), antibody amine-coupled to CM5 chip, Proclin300-treated MIF 50-150 nM as analyte, 1:1 Langmuir with mass transfer; mean of flow cells 2-4, SD +/-2.67 nM
Method: as §1, §2

[3] = molecular target: T1, Mouse oxMIF (mouse recombinant MIF …); test: SPR (Biacore 3000), antibody amine-coupled to CM5 chip, Proclin300-treated MIF 50-150 nM as analyte, 1:1 Langmuir with mass transfer; mean of flow cells 2-4, SD +/-0.21 nM
Method: as §1, §2

Kd [1]: 26.9 nM
B1: anti-oxMIF antibody C0008 (control antibody) (antibody, human IgG1, kappa, V domains shown)
VH: EVQLLESGGGLVQPGGSLRLSCAASGFTFSIYSMNWVRQAPGKGLEWVSSIGSSGGTTYYADSVKGRFTISRDNSKNTLYLQMNSLRAEDTAVYYCAGSQWLYGMDVWGQGTTVTVSS
VL: DIQMTQSPSSLSASVGDRVTITCRSSQRIMTYLNWYQQKPGKAPKLLIFVASHSQSGVPSRFRGSGSETDFTLTISGLQPEDSATYYCQQSFWTPLTFGGGTKVEIKR
notes: Human IgG with wt Fc

Kd [2]: 31.6 nM
B2: anti-oxMIF antibody C0108 (antibody, human IgG1, kappa)
heavy: EVQLQESGGGLVQPGGSLRLSCAASGFTFSIYSMNWVRQAPGKGLEWVSSIGSSGGTTYYADSVKGRFTISRDNSKNTLYLQMNSLRAEDTAVYYCAGSQYLYGMDVWGQGTTVTVSSASTKGPSVFPLAPSSKSTSGGTAALGCLVKDYFPEPVTVSWNSGALTSGVHTFPAVLQSSGLYSLSSVVTVPSSSLGTQTYICNVNHKPSNTKVDKKVEPKSCDKTHTCPPCPAPELLGGPDVFLFPPKPKDTLMISRTPEVTCVVVDVSHEDPEVQFNWYVDGVEVHNAKTKPREEQFNSTFRVVSVLTVVHQDWLNGKEYKCKVSNKALPAPEEKTISKTKGQPREPQVYTLPPSREEMTKNQVSLTCLVKGFYPSDIAVEWESNGQPENNYKTTPPMLDSDGSFFLYSKLTVDKSRWQQGNVFSCSVMHEALHNHYTQKSLSLSPG
light: DIQMTQSPSSLSASVGDRVTITCRSSQRIMTYLNWYQQKPGKAPKLLIYVGSHSQSGVPSRFRGSGSETDFTLTISGLQPEDSATYYCQQSFFTPLTFGGGTKVEIKRTVAAPSVFIFPPSDEQLKSGTASVVCLLNNFYPREAKVQWKVDNALQSGNSQESVTEQDSKDSTYSLSSTLTLSKADYEKHKVYACEVTHQGLSSPVTKSFNRGEC
notes: ADCC/ADCP enhancing mutations in the Fc portion

Kd [3]: 28.6 nM
B3: anti-oxMIF antibody C0109 (antibody, human IgG1, kappa)
heavy: EVQLQESGGGLVQPGGSLRLSCAASGFTFSIYSMNWVRQAPGKGLEWVSSIGSSGGTTYYADSVKGRFTISRDNSKNTLYLQMNSLRAEDTAVYYCAGSQYLYGMDVWGQGTTVTVSSASTKGPSVFPLAPSSKSTSGGTAALGCLVKDYFPEPVTVSWNSGALTSGVHTFPAVLQSSGLYSLSSVVTVPSSSLGTQTYICNVNHKPSNTKVDKKVEPKSCDKTHTCPPCPAPELLGGPDVFLFPPKPKDTLMISRTPEVTCVVVDVSHEDPEVQFNWYVDGVEVHNAKTKPREEQFNSTFRVVSVLTVVHQDWLNGKEYKCKVSNKALPAPEEKTISKTKGQPREPQVYTLPPSREEMTKNQVSLTCLVKGFYPSDIAVEWESNGQPENNYKTTPPMLDSDGSFFLYSKLTVDKSRWQQGNVFSCSVMHEALHNHYTQKSLSLSPG
light: DIQMTQSPSSLSASVGDRVTITCRSSQRILTYLNWYQQKPGKAPKLLIYVGSHSQSGVPSRFRGSGSETDFTLTISGLQSEDSATYYCQQSFFTPLTFGGGTKVEIKRTVAAPSVFIFPPSDEQLKSGTASVVCLLNNFYPREAKVQWKVDNALQSGNSQESVTEQDSKDSTYSLSSTLTLSKADYEKHKVYACEVTHQGLSSPVTKSFNRGEC
notes: as for B2

One block for each binder: values may come before it.
